Broadly, the IC50 is the concentration at which inhibition is half-maximal.

Chains of the proteins cited; added tags and fusions are not shown. Residues count along the entry.
UniProt P22303, 32-617 isoform P22303-2 limits assumed: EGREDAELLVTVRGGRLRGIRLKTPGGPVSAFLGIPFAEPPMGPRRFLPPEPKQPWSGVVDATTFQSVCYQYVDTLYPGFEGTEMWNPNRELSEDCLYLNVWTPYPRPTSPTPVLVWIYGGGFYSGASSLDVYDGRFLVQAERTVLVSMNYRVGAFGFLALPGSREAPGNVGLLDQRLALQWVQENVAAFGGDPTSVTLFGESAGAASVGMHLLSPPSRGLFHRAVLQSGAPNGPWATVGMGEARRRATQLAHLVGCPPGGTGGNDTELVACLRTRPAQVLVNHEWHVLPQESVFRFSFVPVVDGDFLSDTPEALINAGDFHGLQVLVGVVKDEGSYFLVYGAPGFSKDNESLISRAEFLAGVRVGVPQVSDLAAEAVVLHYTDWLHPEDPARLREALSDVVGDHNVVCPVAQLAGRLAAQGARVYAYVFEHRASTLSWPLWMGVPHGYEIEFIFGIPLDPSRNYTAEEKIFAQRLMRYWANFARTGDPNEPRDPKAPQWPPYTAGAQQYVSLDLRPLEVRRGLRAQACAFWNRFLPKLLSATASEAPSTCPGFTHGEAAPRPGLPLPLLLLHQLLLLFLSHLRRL

Our source for the IC50 values is paper PMC8123621, “Development of Novel Potential Pleiotropic Compounds of Interest in Alzheimer’s Disease Treatment through Rigidification Strategy” (Molecules, 2021).

The target of the assay is T1, hAChE (AChE from human erythrocytes) (Homo sapiens, UniProt P22303).
T1 construct: AChE from human erythrocytes; purchased Sigma Aldrich; host or cells: human erythrocytes (tissue-derived enzyme)
In kind it is biochemical. To be noted: mean ± SEM of three experiments; read-out: hAChE IC50 (nM) (n = 3). The protocol:
The inhibitory activity of novel analogs towards hAChE was evaluated according to the Ellman test.
Inhibitory capacity of compounds on AChE biological activity was evaluated through the use of the spectrometric method of Ellman. Acetylthiocholine iodide and 5,5-dithiobis-(2-nitrobenzoic) acid (DTNB) were purchased from Sigma Aldrich. AChE from human erythrocytes (buffered aqueous solution, ≥500 units/mg protein (BCA), Sigma Aldrich) was diluted in 20 mM HEPES buffer pH 8, 0.1% Triton X-100 such as to have enzyme solution with 0.25 unit/mL enzyme activity. In the procedure, 100 μL of 0.3 mM DTNB dissolved in phosphate buffer pH 7.4 were added into the 96 wells plate followed by 50 μL of test compound solution and 50 μL of enzyme ([…]). After 5 min of preincubation at 25 °C, the reaction was then initiated by the injection of 50 μL of 1 mM acetylthiocholine iodide solution. […] Assays were performed with a blank containing all components except acetylthiocholine, in order to account for non-enzymatic reaction. The reaction slopes were compared and the percent inhibition due to the presence of test compounds was calculated by the following expression: 100 − (vi/v0 × 100) where vi is the rate calculated in the presence of inhibitor and v0 is the enzyme activity.

`COc1cc(N)c(Cl)cc1C(=O)CCC1CCN(CC2CCCCC2)CC1` [Donecopride, donecopride, reference compound]: the half-maximal inhibitory concentration (IC50) amounted to 16 ± 5 nM.
